Screens (PubChem)
MC4R antag cAMP: MC4R antagonists of cAMP signaling, primary screen, cell-based, TR-FRET, antagonist arm of biased-ligand search; Melanocortin receptor 4 (Homo sapiens), P32245; MC4R-expressing cells, MTII-stimulated cAMP, LANCE TR-FRET; inhibition, % at 6.5 µM; 360,000 tested, 0.48% active;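 active means inhibition above its plate's cutoff, the mean of tested wells on that plate plus 3 SD, cut at about 29% in these data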;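 further: 0% = Melanotan II alone and 100% = Melanotan II plus saturating MCL0020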
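Material: human MC4R-expressing U2OS cells. Probe or stimulus: Melanotan II challenge. Dosing: 6.5 µM single dose. Times: 30-min compound, 1-h challenge, 1-h detection, room temperature. Technique: TR-FRET with Eu-cAMP and labeled anti-cAMP, 671 nm. Replication: singlicate.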
HDAC3 inhib: HDAC3 deacetylase inhibitors, primary screen, biochemical, fluorescence, cell-free homogeneous | AID 2718, 2010 | recombinant HDAC3, fluorogenic peptide/trypsin coupled | inhibition, % at 8.3 µM | Histone deacetylase 3 (Homo sapiens), O15379 | 320,000 tested, 0.15% active; in the data active means inhibition above about 26%, passing the limit was not always enough
MC4R ag barr: MC4R agonists recruiting beta-arrestin, primary screen, cell-based, luminescence, agonist arm of biased-ligand search; U2OS MC4R beta-arrestin complementation; percent of melanotan II response, DMSO zero; 360,000 tested, 0.98% active; activation, % at 8.9 µM;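 active means activation above a per-plate cutoff, the mean activation of sample wells on that plate plus 3 SD, cut at about 8% in these data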
NALP1 inh: NALP1 inflammasome inhibitors in reconstituted yeast, colorimetric, S. cerevisiae, triplicate retest; AID 2071, 2009; S. cerevisiae NALP1/ASC/caspase-1 growth, X-gal OD620, 72 h; 280,000 tested, 0.61% active; inhibition, % at 10 µM; in the data active means inhibition mostly above about 24%, no sharp cut-off; inactive means mostly below about 32%
UUG fidelity: yeast start codon fidelity modulation | S. cerevisiae UUG-firefly luciferase reporter, luminescence/redox ratio | activity score, % at 18.7 µM | 0.13% of 350,000 active | AID 602363;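 active means replicate mean at a twofold rise or more, about +100% in these data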;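 further: firefly luciferase made from a UUG start codon reports start codon fidelity; reporter light over untreated wells divided by growth signal over untreated wells; some hits fall short of that in this replicate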
ALR inh: blocks human ALR sulfhydryl oxidase activity; inhibition, % (no concentration beside the values); hit rate 3.8% among 290,000; purified ALR, DTT oxidation, H2O2 HRP-luminol luminescence; AID 485317; P55789;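 active = mean and each replicate at 75% or more; inconclusive = only one of the two met; inactive = neither met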;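 note: stock transfer was 7.5 nL into about 7.5 µL; 0% = neutral wells and 100% = wells with inactivated enzyme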
* marks the source's active call; other numbers are inactive results; x = not tested or not shown. Rows were chosen to be rich in hits. Some 4.2% of all compounds tested hit in one or more screens of this group.

The chains behind the UniProt entries cited, without tags or fusion partners.
Melanocortin receptor 4 (Homo sapiens), P32245, UniProt P32245, whole entry, looked up: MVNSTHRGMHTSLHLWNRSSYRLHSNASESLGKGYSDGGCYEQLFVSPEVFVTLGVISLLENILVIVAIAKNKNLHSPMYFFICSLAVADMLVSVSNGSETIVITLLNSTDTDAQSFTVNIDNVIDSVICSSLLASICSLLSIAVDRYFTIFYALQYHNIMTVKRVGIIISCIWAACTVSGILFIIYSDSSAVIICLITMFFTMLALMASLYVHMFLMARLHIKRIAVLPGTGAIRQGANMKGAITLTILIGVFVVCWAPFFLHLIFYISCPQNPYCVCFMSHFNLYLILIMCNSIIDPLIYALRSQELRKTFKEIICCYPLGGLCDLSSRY

SMILES	MC4R antag cAMP	HDAC3 inhib	MC4R ag barr	NALP1 inh	UUG fidelity	ALR inh
COc1ccc(-c2cc(=NCCCCCC(=O)O)c3cc(C)ccc3o2)cc1	3	x	-2	18	x	x
O=[N+]([O-])c1ccc(C(c2ccc([N+](=O)[O-])cc2)c2ccc([N+](=O)[O-])cc2)cc1	3	x	0	x	-3	x
Cn1cnc([N+](=O)[O-])c1Sc1ccc([N+](=O)[O-])cc1	-4	10	-3	2	-13	97*
CN(C)C(=S)SSC(=S)N(C)C	-5	1	-2	64*	-72	x
CCOP(=O)(OCC)C(O)c1ccc(OC)c(OC)c1 (stereo unspecified)	2	3	-1	-6	-6	99*
BrCC1C[n+]2c(SCc3ccccc3)nc3sc4c(c3c2O1)CCCC4 (stereo unspecified)	1	4	-1	28	-22	-6
Nc1c2c(nc3sc4c(c13)CCCCC4)CCCC2	16	10	-1	67*	-36	17
CC1(CCO)CC(C)(CCc2ccccc2)OO1 (stereo unspecified)	x	x	x	x	-5	x
CCOP(=S)(OCC)c1ccc(N(C)C)cc1	16	0	1	4	-9	3
CN(C)c1ccc(P(=S)(N(C)C)N(C)C)cc1	-4	-2	0	28	-5	99*
Cc1ccc(N=C(N(C)C)P(=O)(N(C)C)N(C)C)cc1	-1	-1	-1	24*	x	47
CCCC(CCC)C(=O)OC[N+](C)(C)CCOC(=O)C(O)(c1ccccc1)C1CCCC1 (stereo unspecified)	7	2	1	28*	9	-3
Cc1oc(-c2ccccc2F)nc1CS(=O)CC(=O)N1CCC2(CC1)OCCO2 (stereo unspecified)	-1	-4	1	13	2	99*
O=C(Cn1ncc2ccccc21)N1CCC2(CC1)OCCO2	13	-4	0	10	-11	-4
Cc1oc(-c2ccc(Cl)cc2)nc1CS(=O)CC(=O)N1CCC2(CC1)OCCO2 (stereo unspecified)	1	3	0	-11	6	99*
COc1cccc(-c2nc(CS(=O)CC(=O)N3CCC4(CC3)OCCO4)c(C)o2)c1 (stereo unspecified)	4	1	0	15	3	x
CC(C)CCCn1c(O)c(/C=C2/C=CC=N2)c(=O)[nH]c1=O	-24	-1	-2	42	x	98*
O=C(O)[C@@H]1[C@@H](CO)[C@@H]2Cn3c(ccc(-c4ccncc4)c3=O)[C@H]1N2C(=O)C1CCCCC1	x	x	x	x	42	x
CCC(C)NC(=O)c1c(N)n(CC2CCCO2)c2nc3ccccc3nc12 (stereo unspecified)	5	-9	-1	12	7	10
Cc1cccn2c(NCC3CCCO3)c(C(C)C)nc12 (stereo unspecified)	12	-50	-1	-9	-10	78*
CCOc1cc(-c2nc3c(C)cccn3c2NCC2CCCO2)ccc1O (stereo unspecified)	-2	-78	-2	7	-12	97*
O=C(Cc1ccccn1)N1CCCCN2[C@H](C1)[C@@H](c1ccc(C#Cc3ccccc3)cc1)[C@@H]2CO	x	x	x	x	8	x
CSc1ncc(CN2CCCC(C(=O)c3cccc(Cl)c3)C2)cn1 (stereo unspecified)	5	5	1	-14	-18	-7
COc1ccc(CN2CCCC(C(=O)c3cccc(Cl)c3)C2)cc1 (stereo unspecified)	4	1	9.0*	-85	-27	0
COC(=O)[C@H]1[C@H](CO)[C@H]2Cn3c(ccc(C4=CCCCC4)c3=O)[C@@H]1N2Cc1ccccn1	x	x	x	x	-3	x

The last 6 compounds of the section above come first, to join the parts.
SMILES	MC4R antag cAMP	HDAC3 inhib	MC4R ag barr	NALP1 inh	UUG fidelity	ALR inh
Cc1cccn2c(NCC3CCCO3)c(C(C)C)nc12 (stereo unspecified)	12	-50	-1	-9	-10	78*
CCOc1cc(-c2nc3c(C)cccn3c2NCC2CCCO2)ccc1O (stereo unspecified)	-2	-78	-2	7	-12	97*
O=C(Cc1ccccn1)N1CCCCN2[C@H](C1)[C@@H](c1ccc(C#Cc3ccccc3)cc1)[C@@H]2CO	x	x	x	x	8	x
CSc1ncc(CN2CCCC(C(=O)c3cccc(Cl)c3)C2)cn1 (stereo unspecified)	5	5	1	-14	-18	-7
COc1ccc(CN2CCCC(C(=O)c3cccc(Cl)c3)C2)cc1 (stereo unspecified)	4	1	9.0*	-85	-27	0
COC(=O)[C@H]1[C@H](CO)[C@H]2Cn3c(ccc(C4=CCCCC4)c3=O)[C@@H]1N2Cc1ccccn1	x	x	x	x	-3	x
O=C(Cc1cccnc1)N1CCCCN2[C@H](CO)[C@H](c3ccc(C#CC4CC4)cc3)[C@@H]2C1	x	x	x	x	5	x
O=C(O)CCn1cc(C=C2C(=O)NC(=O)NC2=O)c(-c2ccc(Br)cc2)n1	4	-2	0	23	-15	87*
O=C(O)CCn1cc(C=C2C(=O)NC(=S)NC2=O)c(-c2cccc(Cl)c2)n1	-8	0	-2	14	x	x
CCOC(=O)C1=C(N)OC2=C(C(=O)CCC2)[C@]12C(=O)N(CC(N)=O)c1ccccc12	12	-1	-2	36*	x	-13
N#Cc1ccc(-c2ccc([C@H]3[C@H]4CN(C(=O)Cc5ccccc5)CCCCN4[C@H]3CO)cc2)cc1	x	x	x	x	-2	x
Cc1ccc(CN2CCSc3ccc(C(=O)N4CCC5(CC4)OCCO5)cc32)cc1	7	-11	-1	-3	-14	80*
O=C(c1ccc2c(c1)N(Cc1ccc(F)cc1)CCS2)N1CCC2(CC1)OCCO2	-2	-23	0	13	10	82*
O=C(Cc1cccnc1)N1CCCCN2[C@H](C1)[C@H](c1ccc(C#CC3CC3)cc1)[C@@H]2CO	x	x	x	x	2	x
COC(=O)CSC1=NP(=S)(SCC(=O)OC)N2CCCC2=C1C#N (stereo unspecified)	18	0	-1	2	-12	98*
CSC1=NP(=S)(SC)N2CCCC2=C1C#N (stereo unspecified)	1	-6	1	-6	x	0
N#Cc1ccc(N2CCNCC2)c(F)c1	-12	-2	-1	16	-23	-15
N#Cc1cc(F)c(N2CCNCC2)cc1Cl	11	-2	-2	-4	-17	93*
COCC#Cc1ccc([C@@H]2[C@H]3CN(C(=O)Cc4ccccn4)CCCCN3[C@H]2CO)cc1	x	x	x	x	-5	x
COc1ccc2c(c1OC)C(=O)OC2c1c(O)n(C2CCCCC2)c(=O)[nH]c1=O (stereo unspecified)	-2	-1	-1	x	x	96*
O=c1[nH]c(=O)n(C2CCCCCC2)c(O)c1C=NCc1cccnc1	12	2	-2	12	x	1
C[n+]1c(-c2ccccc2)c2cc(N)ccc2c2ccc(N)cc21	-34	15	-1	13	-36	99*
CC(C)c1ccc(C2NCc3ccccc3-n3cccc32)cc1 (stereo unspecified)	2	2	0	38*	-2	-14
FC(F)(F)Oc1ccc(C2NCc3ccccc3-n3cccc32)cc1 (stereo unspecified)	0	3	1	29	2	-4
N#Cc1ccc(-c2ccc([C@H]3[C@@H](CO)N4CCCCN(C(=O)Cc5ccccc5)C[C@H]34)cc2)cc1	x	x	x	x	-4	x
